Earlier results in PubChem BioAssay AID1811.
pIC50, pKd, pKi: −log10 of the molar value.

Columns and labels:
Assay in all cases: PubChem AID 1811
[1] = target: Serine/threonine-protein kinase PLK1; settings: PDB complex binding affinities from literature; IC50 when reported
[2] = target: methionine aminopeptidase; settings: PDB complex binding affinities from literature
hiv-1 integrase = settings: PDB complex binding affinities from literature; IC50 when reported
[3] = target: heat shock protein 90 alpha; settings: PDB complex binding affinities from literature; IC50 when reported
thermolysin = settings: PDB complex binding affinities from literature; Ki when reported
Polycomb protein Scm = settings: PDB complex binding affinities from literature; Kd when reported
avidin = settings: PDB complex binding affinities from literature; Kd when reported
lectin = settings: PDB complex binding affinities from literature; Kd when reported
[4] = target: poly (adp-ribose) polymerase; settings: PDB complex binding affinities from literature; IC50 when reported
[5] = target: putrescine-binding protein; settings: PDB complex binding affinities from literature; Kd when reported
[6] = target: Gag-Pol polyprotein (Pr160Gag-Pol); settings: PDB complex binding affinities from literature; Kd when reported
beta-lactamase tem = settings: PDB complex binding affinities from literature; Ki when reported
beta-lactamase ctx-m-9 = settings: PDB complex binding affinities from literature; Ki when reported
glutamate racemase = settings: PDB complex binding affinities from literature; Ki when reported
carboxypeptidase a = settings: PDB complex binding affinities from literature; Ki when reported
[7] = target: Pulmonary surfactant-associated protein D; settings: PDB complex binding affinities from literature; IC50 when reported
[8] = target: membrane lipoprotein tmpc; settings: PDB complex binding affinities from literature; Kd when reported
metallo-beta-lactamase = settings: PDB complex binding affinities from literature; Ki when reported
[9] = target: maltodextrin binding protein; settings: PDB complex binding affinities from literature; Ki when reported
[10] = target: histone deacetylase-like protein (hdlp); settings: PDB complex binding affinities from literature; IC50 when reported
phosphoglycerate kinase = settings: PDB complex binding affinities from literature; Ki when reported
[11] = target: protein-tyrosine phosphatase 1b; settings: PDB complex binding affinities from literature; Ki when reported
beta-lactamase = settings: PDB complex binding affinities from literature; Ki when reported
hydroxynitrile lyase = settings: PDB complex binding affinities from literature; Ki when reported
sucrose-specific porin = settings: PDB complex binding affinities from literature; Kd when reported
maltoporin = settings: PDB complex binding affinities from literature; Kd when reported
pol polyprotein = settings: PDB complex binding affinities from literature
[12] = target: nadph-flavin oxidoreductase; settings: PDB complex binding affinities from literature; Kd when reported
calpain = settings: PDB complex binding affinities from literature; Ki when reported

## Nc1ncnc2c1ncn2C1O[C@H](COP(=O)(O)OP(=O)(O)NP(=O)(O)O)[C@@H](O)[C@H]1O (some centres not stated)
[1]
  pIC50: 3.81

## c1ccc2[nH]c(-c3cscn3)nc2c1
[2]; Ki when reported
  pKi: 6.40

## CC(=O)Nc1cc(S(=O)(=O)O)cc2cc(S(=O)(=O)O)cc(O)c12
hiv-1 integrase
  pIC50: 3.10

## CC(C)NCCCn1c(Sc2cc3c(cc2I)OCO3)nc2c(N)ncnc21
[3]
  pIC50: 7.30

## O=C(O)CNC(=O)[C@@H](CS)Cc1ccccc1
thermolysin
  pKi: 5.74

## CN(C)CCCC[C@H](N)C(=O)O
Polycomb protein Scm
  pKd: 2.00

## Nc1nc2c(ncn2[C@H]2C[C@H](O)[C@@H](CO)O2)c(=O)[nH]1
avidin
  pKd: 3.69

## CC(=O)N[C@@H]1[C@@H](O)[C@H](O[C@@H]2O[C@H](CO)[C@H](O)[C@H](O)[C@H]2O)[C@@H](CO)O[C@@H]1O
lectin
  pKd: 3.99

## COc1cccc(C(N)=O)c1
[4]
  pIC50: 5.00

## NCCCCN
[5]
  pKd: 5.70

## CS(=O)(=O)Nc1cccc2cccnc12
[2]; IC50 when reported
  pIC50: 5.67

## COC(=O)N[C@H](C(=O)N[C@@H](Cc1ccccc1)[C@@H](O)CN(Cc1ccc(-c2ccccn2)cc1)NC(=O)[C@@H](NC(=O)OC)C(C)(C)C)C(C)(C)C
[6]
  pKd: 10.46

## CCOc1ccc2ccccc2c1C(=O)N[CH2][Al]
beta-lactamase tem
  pKi: 5.85
beta-lactamase ctx-m-9
  pKi: 5.92

## NC(=O)CC[C@@H](N)C(=O)O
Glutamate racemase
  pKi: 1.30

## CN1CCN(c2ccc(C(=O)Nc3n[nH]c4c3CN(C(=O)Cc3cccs3)C4)cc2)CC1
[1]
  pIC50: 6.36

## O=C(O)C[C@@H](Cc1ccccc1)C(=O)O
Carboxypeptidase a
  pKi: 6.35

## OC1C(O)C(O)C(O)C(O)C1O (configuration not stated)
[7]
  pIC50: 2.24

## O=c1[nH]cnc2c1ncn2[C@@H]1O[C@H](CO)[C@@H](O)[C@H]1O
[8]
  pKd: 6.68

## O=S(=O)(O)CCN1CCOCC1
metallo-beta-lactamase
  pKi: 1.64

## O=P(O)(O)OC1[C@H](O)[C@H](O)C(O)[C@H](O)[C@H]1O (some centres not stated)
[7]
  pIC50: 2.85

## OC[C@H]1O[C@H](O[C@H]2[C@H](O)[C@@H](O)[C@@H](O[C@H]3[C@H](O)[C@@H](O)[C@@H](O[C@H]4[C@H](O)[C@@H](O)[C@@H](O)O[C@@H]4CO)O[C@@H]3CO)O[C@@H]2CO)[C@H](O)[C@@H](O)[C@@H]1O
[9]
  pKi: 5.64

## CC(/C=C/C(=O)NO)=C\[C@@H](C)C(=O)c1ccc(N(C)C)cc1
[10]
  pIC50: 6.40

## Nc1ncnc2c1ncn2[C@@H]1O[C@H](COP(=O)(O)OP(=O)(O)C(F)(F)CCCC(F)(F)P(=O)(O)O)[C@@H](O)[C@H]1O
Phosphoglycerate kinase
  pKi: 5.22

## OC[C@H]1O[C@H](O[C@H]2[C@H](O)[C@@H](O)[C@@H](O[C@H]3[C@H](O)[C@@H](O)[C@@H](O)O[C@@H]3CO)O[C@@H]2CO)[C@H](O)[C@@H](O)[C@@H]1O
[9]
  pKi: 6.80

## CNCCCC[C@H](N)C(=O)O
Polycomb protein Scm
  pKd: 2.60

## O=C(O)C(=O)Nc1ccccc1C(=O)O
[11]
  pKi: 4.64

## CC(C)(O/N=C(\C(=O)N[CH2][Al])c1csc(N)n1)C(=O)O
beta-lactamase ctx-m-9
  pKi: 7.82
beta-lactamase
  pKi: 7.70

## CC(C)NCCCn1c(Sc2cc3c(cc2Br)OCO3)nc2c(N)ncnc21
[3]
  pIC50: 6.70

## OC(O)(C(F)(F)F)C(F)(F)F
Hydroxynitrile lyase
  pKi: 3.26

## Nc1ccc2c3c(cccc13)C(=O)NC2=O
[4]
  pIC50: 6.74

## CC(C)C[C@H](NP(=O)(O)O[C@@H]1O[C@@H](C)[C@H](O)[C@@H](O)[C@H]1O)C(=O)N[C@@H](Cc1c[nH]c2ccccc12)C(=O)O
thermolysin
  pKi: 7.55

## OC[C@H]1O[C@@](CO)(O[C@H]2O[C@H](CO)[C@@H](O)[C@H](O)[C@H]2O)[C@@H](O)[C@@H]1O
sucrose-specific porin
  pKd: 1.30
maltoporin
  pKd: 1.82

## CC(C)CN(C[C@@H](O)[C@H](Cc1ccccc1)NC(=O)O[C@H]1CCOC1)S(=O)(=O)c1ccc(N)cc1
Pol polyprotein; Kd when reported
  pKd: 8.70

## Nc1nc2c(ncn2[C@@H]2O[C@H](CO)[C@@H](O)[C@H]2O)c(=O)[nH]1
[8]
  pKd: 7.15

## Cc1cc2nc3c(=O)[nH]c(=O)nc-3n(CC(O)[C@H](O)[C@H](O)COP(=O)(O)O)c2cc1C (some centres not stated)
[12]
  pKd: 6.77

## OCC(Cl)(Cl)Cl
Hydroxynitrile lyase
  pKi: 3.41

## O=C(O)[C@@H](S)Cc1ccccc1
calpain
  pKi: 6.52

## Nc1nc2c([nH]c(=O)n2[C@H]2C[C@H](O)[C@@H](CO)O2)c(=O)[nH]1
avidin
  pKd: 3.93

## CCCC[C@H](NC(=O)[C@H](C)NC(=O)[C@H](CCC(=O)O)NC(=O)[C@H](Cc1ccccc1)NC[C@H](CC(C)C)NC(=O)[C@@H](NC(=O)[C@@H](N)CCCN=C(N)N)C(C)C)C(N)=O
Pol polyprotein; Ki when reported
  pKi: 7.62
